{
  "source": "PubChem BioAssay AID431",
  "about": "(Sanford-Burnham Center for Chemical Genomics, 2006)",
  "note": "This is a selection; strong and weak results do not stand in their true shares. Potency and affinity values are given separately. Activity calls are given as the source filed them.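 The calls were made as follows: active = compounds whose percent cytotoxicity in the single-dose primary screen, scaled between solvent and toxic-drug controls, exceeds 50; inactive = the rest.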",
  "data": [
    {"test": "viability loss of HPDE-C7K cells – cell-based, fluorescence, HTS, primary screen (AID 431);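 also: 0% = DMSO solvent wells and 100% = doxorubicin-treated wells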", "conditions": "HPDE-C7K KRASV12 cells, Alamar Blue viability, 48 h; at 10 µM; active compounds read high", "values": [
      {"compound": "Cc1nc2ccc3ccccc3c2s1.O=[N+]([O-])c1cc([N+](=O)[O-])c(O)c([N+](=O)[O-])c1", "cytotoxicity": "inactive: 0%"},
      {"compound": "Cc1ccc(C)c(NP(C)(=O)Oc2ccccc2)c1", "note": "(configuration not stated)", "cytotoxicity": "inactive: -9.5%"},
      {"compound": "Cc1ccc(NP(C)(=O)Oc2ccccc2)c(C)c1", "note": "(configuration not stated)", "cytotoxicity": "inactive: -12.7%"},
      {"compound": "CP(=S)(Nn1cnnc1)Oc1ccccc1", "note": "(configuration not stated)", "cytotoxicity": "inactive: 4.7%"},
      {"compound": "CP(=O)(NC(=O)Nc1ccccc1)Oc1ccccc1", "note": "(configuration not stated)", "cytotoxicity": "inactive: -19.5%"},
      {"compound": "CCOP(C)(=S)SCC(=O)NC(C)C(=O)O", "note": "(configuration not stated)", "cytotoxicity": "inactive: -7.9%"},
      {"compound": "COc1ccccc1OP(C)(=O)Nc1c(C)n(C)n(-c2ccccc2)c1=O", "note": "(configuration not stated)", "cytotoxicity": "inactive: -21.4%"},
      {"compound": "CP(=O)(Oc1ccccc1)N1CCOC1=O", "note": "(configuration not stated)", "cytotoxicity": "inactive: 11.6%"},
      {"compound": "CCN(CC)CC(O)COC(=O)C(O)(c1ccccc1)C1CCCCC1", "note": "(configuration not stated)", "cytotoxicity": "inactive: 8.8%"},
      {"compound": "COc1ccccc1OP(C)(=O)Nc1ccc(C)c(C)c1", "note": "(configuration not stated)", "cytotoxicity": "inactive: 2.4%"},
      {"compound": "Cc1nc2ccc3ccccc3c2o1.O=[N+]([O-])c1cc([N+](=O)[O-])c(O)c([N+](=O)[O-])c1", "cytotoxicity": "inactive: 1.8%"},
      {"compound": "CP(=O)(Nc1ccccn1)Oc1ccccc1", "note": "(configuration not stated)", "cytotoxicity": "inactive: -3.1%"},
      {"compound": "CP(=O)(Nc1ccccc1F)Oc1ccccc1", "note": "(configuration not stated)", "cytotoxicity": "inactive: -2.6%"},
      {"compound": "CN(C)CCOC(=O)C(O)(c1ccccc1)C1CCCCC1", "note": "(configuration not stated)", "cytotoxicity": "inactive: -0.3%"},
      {"compound": "CCOP(C)(=S)SCC(=O)NC(C)(CC)C(=O)O", "note": "(configuration not stated)", "cytotoxicity": "inactive: -20.8%"},
      {"compound": "Cc1ccccc1NP(C)(=O)Nc1ccccc1C", "cytotoxicity": "inactive: -8.4%"},
      {"compound": "CP(=O)(Nc1ccc2c(c1)OCCO2)Oc1ccccc1", "note": "(configuration not stated)", "cytotoxicity": "inactive: 14.2%"}
    ]}
  ]
}
